Assay results from patent US20180214612A1.

By UniProt entry, the sequences of proteins in these tests, tags left out. Residues count along the entry.
UniProt P02454, 152-1207 limits assumed, chain 1 of 2: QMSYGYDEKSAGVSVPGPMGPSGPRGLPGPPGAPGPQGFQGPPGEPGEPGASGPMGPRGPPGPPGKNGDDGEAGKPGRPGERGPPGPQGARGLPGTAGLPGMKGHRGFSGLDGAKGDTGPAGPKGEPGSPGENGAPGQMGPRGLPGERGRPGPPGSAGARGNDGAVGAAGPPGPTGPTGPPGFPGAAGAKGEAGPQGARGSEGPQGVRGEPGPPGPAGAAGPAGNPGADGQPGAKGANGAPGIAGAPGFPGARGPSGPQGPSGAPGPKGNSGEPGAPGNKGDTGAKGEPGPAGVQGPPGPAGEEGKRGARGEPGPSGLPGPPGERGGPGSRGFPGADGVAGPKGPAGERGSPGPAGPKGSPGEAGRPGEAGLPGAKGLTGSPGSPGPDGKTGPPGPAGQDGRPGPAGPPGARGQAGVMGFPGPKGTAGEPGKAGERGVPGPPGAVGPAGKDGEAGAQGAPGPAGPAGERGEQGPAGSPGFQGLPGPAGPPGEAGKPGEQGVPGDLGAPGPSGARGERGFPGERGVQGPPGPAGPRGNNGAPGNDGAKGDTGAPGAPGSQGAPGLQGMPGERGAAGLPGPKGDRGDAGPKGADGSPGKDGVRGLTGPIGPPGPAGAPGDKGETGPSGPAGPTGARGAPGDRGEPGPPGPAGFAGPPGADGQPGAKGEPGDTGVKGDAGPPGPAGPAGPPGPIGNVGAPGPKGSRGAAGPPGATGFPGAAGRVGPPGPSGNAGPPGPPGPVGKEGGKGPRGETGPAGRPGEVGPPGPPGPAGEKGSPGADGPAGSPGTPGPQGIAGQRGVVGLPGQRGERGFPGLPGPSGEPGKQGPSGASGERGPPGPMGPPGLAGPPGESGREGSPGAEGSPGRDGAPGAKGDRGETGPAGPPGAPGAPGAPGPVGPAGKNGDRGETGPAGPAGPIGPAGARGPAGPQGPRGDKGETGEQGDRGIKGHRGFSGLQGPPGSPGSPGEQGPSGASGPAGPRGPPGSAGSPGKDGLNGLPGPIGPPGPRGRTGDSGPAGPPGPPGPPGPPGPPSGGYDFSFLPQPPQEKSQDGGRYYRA

Target: Type I collagen prepared from rat tail tendon (rat) (UniProt P02454)
Experiment: modified ELISA on plate coated with rat tail type I collagen, anti-polyhistidine detection, Scatchard analysis

- Kd: 1340 nM
Substance: Native human SDF-1α (NAT-SDF-1α), with 6×His tag (from UniProt O62657 22-89) (ligand)
